Consider one substance from patent US20260167673A1, “NOVEL POLYPEPTIDE, POLYPEPTIDE DERIVATIVE AND USE THEREOF” (NANJING ANJI BIOTECHNOLOGY CO., LTD., priority 2023, published 2026).

The subject of assay [1] is subcutaneous xenograft tumor model using tongue squamous cell carcinoma cells CAL27. The experiment in a line: CAL27 subcutaneous xenograft, fusion protein (Example 10). The format is in vivo, BALB/c nude mice. As to conditions: 20 mg/kg twice weekly. From the text: The novel polypeptide HMMW15-51 (SEQ ID NO. 21) was conjugated to human IgG4 (NCBI Gene ID: 3503) via a GGGG linker, packaged into an expression plasmid (General Biol, Anhui), and transfected into CHO cells. The cells were expanded and subjected to fermentation. The supernatant was collected, and the fusion polypeptide was purified using an AKTA Pure protein purification system with Protein A (Yeasen Biotechnology: 36409ES03). Upon obtaining a sufficient quantity of fusion protein, animal experiments were initiated.
Human tongue squamous cell carcinoma cells CAL27 were cultured, digested with 0.25% trypsin, centrifuged, and resuspended in serum-free DMEM medium to adjust the cell concentration to 5×10^7 cells/mL. Subsequently, 100 μL of the cell suspension (containing 5×10^6 cells) was subcutaneously inoculated into the left axilla of 4-6-week-old female BALB/c nude mice weighing 14-16 g, which had been acclimatized for one week in an SPF-level animal facility. When the average tumor volume reached approximately 80 mm^3 around 14 days post-inoculation, tumor-bearing mice were randomly divided into four groups: a saline control group, a low-dose fusion polypeptide group (7.5 mg/kg, administered twice weekly), a high-dose fusion polypeptide group (15 mg/kg, administered twice weekly), and a cetuximab control group (20 mg/kg, administered twice weekly). During the treatment period, tumor length (a) and width (b) were measured every five days using a vernier caliper, and tumor volume was calculated using the formula V=0.5×a×b^2. After 21 consecutive days of treatment, the mice were euthanized.

The test system of assay [2] is CAL27 tumor xenografts in nude mice. The experiment in a line: CAL27 tumor xenografts, fatty diacid conjugates (Example 11). The format is in vivo, BALB/c nude mice. As to conditions: 20 mg/kg twice weekly. From the text:
In this example, modification with the 18-carbon fatty diacid (HOOC—C16—COOH) included two forms: one involved direct attachment of the fatty diacid to the N-terminus (i.e., HOOC—C17-HMMW15-51); the other employed a small peptide linker, Ala-Ala-Asn, to connect the fatty diacid (i.e., HOOC—C17-L-HMMW15-51).
Both HOOC—C17-HMMW15-51 and HOOC—C17-L-HMMW15-51 were synthesized using solid-phase peptide synthesis to couple amino acids. For conjugating the fatty diacid, the fatty acid was coupled to the peptide resin following standard solid-phase synthesis protocols to obtain the crude product. After cleavage, the target compounds were obtained via preparative high-performance liquid chromatography followed by lyophilization.
Human tongue squamous cell carcinoma cells CAL27 were cultured, digested with 0.25% trypsin, centrifuged, and resuspended in serum-free DMEM medium to adjust the cell concentration to 5×10^7 cells/mL. Subsequently, 100 μL of the cell suspension (containing 5×10^6 cells) was subcutaneously inoculated into the left axilla of 4-6-week-old female BALB/c nude mice weighing 14-16 g, which had been acclimatized for one week in an SPF-level animal facility. […] During the treatment period, tumor length (a) and width (b) were measured every four days using a vernier caliper, and tumor volume was calculated using the formula V=0.5×a×b^2. After 21 consecutive days of treatment, the mice were euthanized.

Consider cetuximab, for which the tumor volume in assay [1] (D 1) turned out to be 81.98 ± 2.85 mm^3; in assay [1] (D 6) it was 100.39 ± 10.36 mm^3; in assay [1] (D 11), 110.93 ± 10.37 mm^3; in assay [1] (D 16), 152.18 ± 19.10 mm^3; in assay [1] (D 21) it was 206.78 ± 28.58 mm^3; in assay [2] (D 1), 68.56 ± 24.96 mm^3. The tumor volume in assay [2] (D 5) stood at 137.39 ± 41.72 mm^3; in assay [2] (D 9) it was 173.47 ± 62.09 mm^3; in assay [2] (D 13), 205.53 ± 78.87 mm^3; in assay [2] (D 17), 282.32 ± 128.26 mm^3; in assay [2] (D 21), 332.74 ± 93.27 mm^3.
